Laboratory results published in patent US20260042764A1, “COMPOSITIONS AND METHODS FOR INHIBITION OF KRAS” (TheRas, Inc., priority 2022, published 2026).

By UniProt entry, the sequences of proteins in these tests, tags left out. Residues count along the entry.
UniProt P01116, 2-169 isoform 2 G12C limits assumed: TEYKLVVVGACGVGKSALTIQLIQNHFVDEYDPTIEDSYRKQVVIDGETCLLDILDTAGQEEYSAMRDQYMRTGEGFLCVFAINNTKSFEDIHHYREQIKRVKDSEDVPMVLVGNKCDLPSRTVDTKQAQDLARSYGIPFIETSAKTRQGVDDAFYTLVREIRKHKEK

Tests used:
[1] = test system: SW1900 cells (KRAS G12D); experiment: 3D Cell viability assay in SW1900 cells (Biological Example 6); details: read-out: SW1990 3D cell viability IC50; SW1990 (text: SW1900, KRAS G12D) spheroids, 72 hours
Procedure: (§1) Biological Example 6: 3D Cell viability assay in AsPC-1, SW1900, HPAC, Capan-2, RKN, H358, HCT116, KP-2, H1573, A549, MKN1, and HT1080 cells
(§2) The inhibition of cellular viability as a result of test compound treatment in a spheroid assay was measured using the CellTiter-Glow 3D Cell Viability Assay (Promega).
(§3) On Day 1, 1000 cells per well were seeded in 150 μL of complete growth media supplemented with 10% fetal bovine serum (FBS) and incubated at 37° C., in the presence of 5% CO2 in 96-well ultra-low attachment microplates (Corning) for 48 hours undisturbed to allow spheroids to form.
(§4) Following spheroid formation, cells were treated with compounds diluted in DMSO at 0.25% final DMSO concentration. Compounds were dosed in a 9-point concentration curve with three-fold dilution between concentrations. […]
(§5) Following this incubation period, the kit-provided CTG reagent was allowed to equilibrate for 30 minutes at room temperature, 150 μL of equilibrated CTG reagent was added to each well, and the plate was sealed before shaking at 250 rpm for 10 minutes at room temperature to lyse the cells, 150 μL of lysate per well was transferred to a 96-well plate and luminescence was read on a CLARIOstar plate reader.
(§6) Data was imported into the Prism software package (Graphpad) and EC50 values were calculated using the log (inhibitor) vs, response—variable slope (Four parameters) model.

[2] = test system: RKN cells (KRAS G12V); experiment: Cell-based pERK HTRF assay in RKN cells (Biological Example 5); details: read-out: RKN pERK HTRF IC50
Procedure: (§7) Biological Example 5: Cell-based PERK HTRF assay in AsPC-1, SW1900, HPAC, Capan-2, RKN, H358, HCT116, KP-2, H1573, A549, MKN1, and HT1080 cells
(§8) The inhibition of ERK phosphorylation, as measured using the HTRF Advanced Phospho-ERK 1/2 (Thr202/Tyr204) Detection Assay kit (Perkin Elmer), was used to determine the effectiveness of test compounds in disrupting KRAS-driven protein/effector signaling in cells.
(§9) On day 1, cells were seeded into 96-well plates at 2.5×10^4 cells/well in 100 μL of complete growth media supplemented with 10% fetal bovine serum (FBS) and incubated at 37° C., in the presence of 5% CO2.
(§10) On day 2, cells were treated with compounds diluted in DMSO at 0.25% final DMSO concentration. Compounds were dosed in a 9-point concentration curve with three-fold dilution between concentrations. Cells were incubated in the presence of compound for two hours at 37° C. […]
(§11) Following this incubation period, plates were centrifuged at 500×g for one minute and analyzed on a CLARIOstar plate reader. Data was imported into Microsoft Excel and the signal from the 665 nm channel was divided by the signal from the 620 nm channel. % pERK was calculated as: […]
(§12) Data was imported to the Prism software package (Graphpad) and EC50 values were calculated using the log (inhibitor) vs, response—variable slopc (Four parameters) model.

[3] = target: Avi-KRAS G12C (2-169) GTP/RAF1 RBD-3xFLAG (51-131) (Homo sapiens, UniProt P01116, G12C); experiment: Raf1-KRAS G12C-GTP disruption HTRF assay (Biological Example 3); details: read-out: Raf1-GTP-KRAS G12C disruption, GTP-loaded
Procedure: Biological Example 3: Disrupting RAS-Effector Binding HTRF Assay
A protein:protein interaction (PPI) Homogeneous Time Resolved Fluorescence (HTRF) assay was used to determine the effectiveness of compounds in disrupting KRAS protein and effector (RAF1) binding.
The HTRF assay used the following reagents and proteins: (i) 50 nM Avi-KRAS G12D (2-169) GTP/RAF1 RBD-3xFLAG (51-131): (ii) 50 nM Avi-KRAS G12C (2-169) GTP/RAF1 RBD-3xFLAG (51-131): (iii) 50 nM Avi-KRAS G12V (2-169) GTP/RAF1 RBD-3xFLAG (51-131); (iv) 50 nM Avi-KRAS WT (2-169) GTP/RAF1 RBD-3xFLAG (51-131); and (v) 75 nM 3xFLAG-RAF1 RBD (51-131)-Avi. The assay buffer included: 50 mM Tris pH 7.5 (Invitrogen, 15567-027), 100 mM NaCl (Sigma, S5150-IL), 5 mM MgCl2 (Sigma, 63069), 0.1% BSA (Sigma, A7030), 0.01% Tween 20 (Sigma, P7949), 10% DMSO (Cell Signaling, 12611). The bead buffer included: 50 mM Tris pH 7.5 (Invitrogen, 15567-027), 0.01% Tween 20 (Sigma, P7949). An assay volume of 20 μL was used in a 384 well plate-low volume format. Compound titration: 30-0.005 μM, 3x dilution series.
The HTRF assay employed the following protocol: […]
Plates were analyzed on an Envision plate reader using the following setting: Excitation 320 nm, Bandwidth 75 nm; Emission 615 nm, Bandwidth 85 nm; Gain 100%; Flashes 100; Lag 60 μs. […] Data was plotted and analyzed using Prism 8. […]

[4] = test system: MKN1 cells (KRAS amplification); experiment: 3D Cell viability assay in MKN1 cells (Biological Example 6); details: read-out: MKN 3D cell viability IC50; MKN (MKN1, KRAS amplification) spheroids, 72 hours
Procedure: as §1, §2, §3, §4, §5, §6

[5] = test system: HPAC cells (KRAS G12D); experiment: Cell-based pERK HTRF assay in HPAC cells (Biological Example 5); details: read-out: HPAC pERK HTRF IC50
Procedure: as §7, §8, §9, §10, §11, §12

[6] = test system: H358 cells (KRAS G12C); experiment: Cell-based pERK HTRF assay in H358 cells (Biological Example 5); details: read-out: H358 pERK HTRF IC50
Procedure: as §7, §8, §9, §10, §11, §12

Measured: IC50

CCN(c1nc(OC[C@@]23CCCN2C[C@H](F)C3)nc2c(F)c(-c3ccc(F)c4sc(N)c(C#N)c34)c(C(F)(F)F)cc12)[C@H]1CCN(C(=O)OC2COC2)C1
< 0.1 µM: [1] | [2] | [3] | [4] | [5] | [6]
